Columns and labels:
adenosine A2b receptor = molecular target: T1, adenosine A2b receptor (Homo sapiens, UniProt P29275); test: Intracellular cAMP (cAMP-RIA) in CHO cells transfected with cDNA for the A2b receptor, agonist mode; assay type: cell-based; conditions: based on control without substance
T1 sequence (P29275 1-332): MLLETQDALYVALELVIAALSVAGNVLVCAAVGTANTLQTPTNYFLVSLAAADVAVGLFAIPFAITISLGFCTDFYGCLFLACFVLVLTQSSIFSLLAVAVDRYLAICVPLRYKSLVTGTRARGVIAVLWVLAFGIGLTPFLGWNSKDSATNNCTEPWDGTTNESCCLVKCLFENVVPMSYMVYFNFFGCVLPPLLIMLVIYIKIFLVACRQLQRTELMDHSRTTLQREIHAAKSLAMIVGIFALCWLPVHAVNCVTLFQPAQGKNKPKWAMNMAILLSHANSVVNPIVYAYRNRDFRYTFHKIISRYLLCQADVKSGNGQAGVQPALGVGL
Experimental: (§1) Cells of the permanent line CHO (Chinese Hamster Ovary) were stably transfected with cDNA for the adenosine receptor subtypes A1, A2a, A2b and A3. Binding of the substances to the A2a or A2b receptor subtypes was determined by measuring the intracellular cAMP concentration in these cells using a conventional radioimmunological assay (cAMP-RIA, IBL GmbH, Hamburg, Germany).
In the case of the action of the substances as agonists, binding of the substances is expressed in an increase of the intracellular cAMP concentration.
In the experiments below, the intracellular cAMP concentration in CHO cells which had been transfected with cDNA for the A2b receptor was determined. What is stated is the cAMP concentration in percent in all cells in a well of a microtiter plate, based on the control value obtained without any substances acting on the cells: […]

Sequences of proteins named here, by UniProt entry; tags and fusion partners are left off.
UniProt P30542, whole entry: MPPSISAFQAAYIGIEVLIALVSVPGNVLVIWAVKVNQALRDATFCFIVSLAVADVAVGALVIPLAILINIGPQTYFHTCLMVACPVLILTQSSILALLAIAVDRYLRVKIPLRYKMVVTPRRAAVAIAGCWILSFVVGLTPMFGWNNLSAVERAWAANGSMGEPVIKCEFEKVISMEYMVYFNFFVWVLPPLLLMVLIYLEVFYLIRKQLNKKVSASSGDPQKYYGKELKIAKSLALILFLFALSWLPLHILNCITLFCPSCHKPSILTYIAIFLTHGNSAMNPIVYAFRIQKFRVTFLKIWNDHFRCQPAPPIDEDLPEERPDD

adenosine A1 receptor = adenosine A1 receptor (Homo sapiens, UniProt P30542); test: Intracellular cAMP in CHO cells transfected with cDNA for the A1 receptor after prestimulation with forskolin; assay type: cell-based; conditions: based on control prestimulated with 1 μM forskolin for 15 min (18% without forskolin)
Experimental: as §1
The adenosine receptors A1 and A3 are coupled to a Gi protein, i.e. stimulation of these receptors results in an inhibition of adenylate cyclase and thus a reduction of the intracellular cAMP level. To identify A1/A3 receptor agonists, the adenylate cyclase is stimulated using forskolin. However, additional stimulation of the A1/A3 receptors inhibits adenylate cyclase, so that it is possible to detect A1/A3 receptor agonists by a comparatively low concentration of cAMP in the cell.
In the following experiments, the intracellular cAMP concentration in CHO cells transfected with the cDNA for the A1 receptor was determined.

CCNC(=O)[C@H]1O[C@@H](n2cnc3c(N)ncnc32)[C@H](O)[C@@H]1O [NECA, 5-N-ethylcarboxamido-adenosine, reference compound]
Concentration of intracellular cAMP in percent (adenosine A2b receptor; 10^-5 M): 1263% | Concentration of intracellular cAMP in percent (adenosine A2b receptor; 10^-6 M): 1226% | Concentration of intracellular cAMP in percent (adenosine A2b receptor; 10^-7 M): 858% | Concentration of intracellular cAMP in percent (adenosine A2b receptor; 10^-8 M): 340% | Concentration of intracellular cAMP in percent (adenosine A2b receptor; 10^-9 M): 363% | Concentration of intracellular cAMP in percent (adenosine A1 receptor; 10^-5 M): 28% | Concentration of intracellular cAMP in percent (adenosine A1 receptor; 10^-6 M): 24% | Concentration of intracellular cAMP in percent (adenosine A1 receptor; 10^-7 M): 24%
